Our source for the Ki values is US9499502B2, “5-substituted iminothiazines and their mono- and dioxides as BACE inhibitors, compositions, and their use” (Merck Sharp & Dohme Corp., priority 2011, dated 2016).

Amino acid sequences for entries named in this document (tags omitted). Residues count along the entry.
UniProt Q9Y5Z0, 63-473 limits assumed: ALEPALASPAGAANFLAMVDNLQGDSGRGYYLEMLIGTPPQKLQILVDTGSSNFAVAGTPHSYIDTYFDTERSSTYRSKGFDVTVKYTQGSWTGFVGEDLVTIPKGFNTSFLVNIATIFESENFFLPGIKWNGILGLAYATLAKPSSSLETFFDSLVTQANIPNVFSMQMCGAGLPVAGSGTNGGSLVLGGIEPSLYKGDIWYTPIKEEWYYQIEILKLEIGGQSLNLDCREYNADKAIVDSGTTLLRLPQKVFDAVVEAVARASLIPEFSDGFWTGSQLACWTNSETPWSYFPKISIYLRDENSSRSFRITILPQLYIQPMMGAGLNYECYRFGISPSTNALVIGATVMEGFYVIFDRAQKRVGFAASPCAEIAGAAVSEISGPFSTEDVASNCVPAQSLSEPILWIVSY

One may read the Ki as the dissociation constant of the complex between target and ligand, obtained from inhibition or displacement.

This assay concerns the target purified human autoBACE-2 (Homo sapiens (Human), UniProt Q9Y5Z0). Put plainly: BACE-2 Assay (BACE-HTRF assay). As to conditions: read-out: BACE2 Ki; Ki calculated from IC50 using the Cheng-Prusoff equation. Type of assay: biochemical.

As for `CC1(C)C(=N)N[C@](C)(c2cc(NC(=O)[C@H]3CCCO3)ccc2F)CS1(=O)=O` [Example 9al], the Ki was 44 nM.
